Literature values in patent US20220394981A1, “MICRONUTRIENT FORMULATIONS THAT CONTROL PLANT PATHOGENS” (priority 2021, published 2022).

Conditions: cited from earlier work

O=C(O)CN(CCN(CC(=O)O)CC(=O)O)CC(=O)O [EDTA]
LogK Fe2+ (stability constant): 14.3
